From doi:10.1101/2020.11.17.386581

Amino acid sequences for entries named in this document (tags omitted). Residues count along the entry.
UniProt Q07954, 20-4544: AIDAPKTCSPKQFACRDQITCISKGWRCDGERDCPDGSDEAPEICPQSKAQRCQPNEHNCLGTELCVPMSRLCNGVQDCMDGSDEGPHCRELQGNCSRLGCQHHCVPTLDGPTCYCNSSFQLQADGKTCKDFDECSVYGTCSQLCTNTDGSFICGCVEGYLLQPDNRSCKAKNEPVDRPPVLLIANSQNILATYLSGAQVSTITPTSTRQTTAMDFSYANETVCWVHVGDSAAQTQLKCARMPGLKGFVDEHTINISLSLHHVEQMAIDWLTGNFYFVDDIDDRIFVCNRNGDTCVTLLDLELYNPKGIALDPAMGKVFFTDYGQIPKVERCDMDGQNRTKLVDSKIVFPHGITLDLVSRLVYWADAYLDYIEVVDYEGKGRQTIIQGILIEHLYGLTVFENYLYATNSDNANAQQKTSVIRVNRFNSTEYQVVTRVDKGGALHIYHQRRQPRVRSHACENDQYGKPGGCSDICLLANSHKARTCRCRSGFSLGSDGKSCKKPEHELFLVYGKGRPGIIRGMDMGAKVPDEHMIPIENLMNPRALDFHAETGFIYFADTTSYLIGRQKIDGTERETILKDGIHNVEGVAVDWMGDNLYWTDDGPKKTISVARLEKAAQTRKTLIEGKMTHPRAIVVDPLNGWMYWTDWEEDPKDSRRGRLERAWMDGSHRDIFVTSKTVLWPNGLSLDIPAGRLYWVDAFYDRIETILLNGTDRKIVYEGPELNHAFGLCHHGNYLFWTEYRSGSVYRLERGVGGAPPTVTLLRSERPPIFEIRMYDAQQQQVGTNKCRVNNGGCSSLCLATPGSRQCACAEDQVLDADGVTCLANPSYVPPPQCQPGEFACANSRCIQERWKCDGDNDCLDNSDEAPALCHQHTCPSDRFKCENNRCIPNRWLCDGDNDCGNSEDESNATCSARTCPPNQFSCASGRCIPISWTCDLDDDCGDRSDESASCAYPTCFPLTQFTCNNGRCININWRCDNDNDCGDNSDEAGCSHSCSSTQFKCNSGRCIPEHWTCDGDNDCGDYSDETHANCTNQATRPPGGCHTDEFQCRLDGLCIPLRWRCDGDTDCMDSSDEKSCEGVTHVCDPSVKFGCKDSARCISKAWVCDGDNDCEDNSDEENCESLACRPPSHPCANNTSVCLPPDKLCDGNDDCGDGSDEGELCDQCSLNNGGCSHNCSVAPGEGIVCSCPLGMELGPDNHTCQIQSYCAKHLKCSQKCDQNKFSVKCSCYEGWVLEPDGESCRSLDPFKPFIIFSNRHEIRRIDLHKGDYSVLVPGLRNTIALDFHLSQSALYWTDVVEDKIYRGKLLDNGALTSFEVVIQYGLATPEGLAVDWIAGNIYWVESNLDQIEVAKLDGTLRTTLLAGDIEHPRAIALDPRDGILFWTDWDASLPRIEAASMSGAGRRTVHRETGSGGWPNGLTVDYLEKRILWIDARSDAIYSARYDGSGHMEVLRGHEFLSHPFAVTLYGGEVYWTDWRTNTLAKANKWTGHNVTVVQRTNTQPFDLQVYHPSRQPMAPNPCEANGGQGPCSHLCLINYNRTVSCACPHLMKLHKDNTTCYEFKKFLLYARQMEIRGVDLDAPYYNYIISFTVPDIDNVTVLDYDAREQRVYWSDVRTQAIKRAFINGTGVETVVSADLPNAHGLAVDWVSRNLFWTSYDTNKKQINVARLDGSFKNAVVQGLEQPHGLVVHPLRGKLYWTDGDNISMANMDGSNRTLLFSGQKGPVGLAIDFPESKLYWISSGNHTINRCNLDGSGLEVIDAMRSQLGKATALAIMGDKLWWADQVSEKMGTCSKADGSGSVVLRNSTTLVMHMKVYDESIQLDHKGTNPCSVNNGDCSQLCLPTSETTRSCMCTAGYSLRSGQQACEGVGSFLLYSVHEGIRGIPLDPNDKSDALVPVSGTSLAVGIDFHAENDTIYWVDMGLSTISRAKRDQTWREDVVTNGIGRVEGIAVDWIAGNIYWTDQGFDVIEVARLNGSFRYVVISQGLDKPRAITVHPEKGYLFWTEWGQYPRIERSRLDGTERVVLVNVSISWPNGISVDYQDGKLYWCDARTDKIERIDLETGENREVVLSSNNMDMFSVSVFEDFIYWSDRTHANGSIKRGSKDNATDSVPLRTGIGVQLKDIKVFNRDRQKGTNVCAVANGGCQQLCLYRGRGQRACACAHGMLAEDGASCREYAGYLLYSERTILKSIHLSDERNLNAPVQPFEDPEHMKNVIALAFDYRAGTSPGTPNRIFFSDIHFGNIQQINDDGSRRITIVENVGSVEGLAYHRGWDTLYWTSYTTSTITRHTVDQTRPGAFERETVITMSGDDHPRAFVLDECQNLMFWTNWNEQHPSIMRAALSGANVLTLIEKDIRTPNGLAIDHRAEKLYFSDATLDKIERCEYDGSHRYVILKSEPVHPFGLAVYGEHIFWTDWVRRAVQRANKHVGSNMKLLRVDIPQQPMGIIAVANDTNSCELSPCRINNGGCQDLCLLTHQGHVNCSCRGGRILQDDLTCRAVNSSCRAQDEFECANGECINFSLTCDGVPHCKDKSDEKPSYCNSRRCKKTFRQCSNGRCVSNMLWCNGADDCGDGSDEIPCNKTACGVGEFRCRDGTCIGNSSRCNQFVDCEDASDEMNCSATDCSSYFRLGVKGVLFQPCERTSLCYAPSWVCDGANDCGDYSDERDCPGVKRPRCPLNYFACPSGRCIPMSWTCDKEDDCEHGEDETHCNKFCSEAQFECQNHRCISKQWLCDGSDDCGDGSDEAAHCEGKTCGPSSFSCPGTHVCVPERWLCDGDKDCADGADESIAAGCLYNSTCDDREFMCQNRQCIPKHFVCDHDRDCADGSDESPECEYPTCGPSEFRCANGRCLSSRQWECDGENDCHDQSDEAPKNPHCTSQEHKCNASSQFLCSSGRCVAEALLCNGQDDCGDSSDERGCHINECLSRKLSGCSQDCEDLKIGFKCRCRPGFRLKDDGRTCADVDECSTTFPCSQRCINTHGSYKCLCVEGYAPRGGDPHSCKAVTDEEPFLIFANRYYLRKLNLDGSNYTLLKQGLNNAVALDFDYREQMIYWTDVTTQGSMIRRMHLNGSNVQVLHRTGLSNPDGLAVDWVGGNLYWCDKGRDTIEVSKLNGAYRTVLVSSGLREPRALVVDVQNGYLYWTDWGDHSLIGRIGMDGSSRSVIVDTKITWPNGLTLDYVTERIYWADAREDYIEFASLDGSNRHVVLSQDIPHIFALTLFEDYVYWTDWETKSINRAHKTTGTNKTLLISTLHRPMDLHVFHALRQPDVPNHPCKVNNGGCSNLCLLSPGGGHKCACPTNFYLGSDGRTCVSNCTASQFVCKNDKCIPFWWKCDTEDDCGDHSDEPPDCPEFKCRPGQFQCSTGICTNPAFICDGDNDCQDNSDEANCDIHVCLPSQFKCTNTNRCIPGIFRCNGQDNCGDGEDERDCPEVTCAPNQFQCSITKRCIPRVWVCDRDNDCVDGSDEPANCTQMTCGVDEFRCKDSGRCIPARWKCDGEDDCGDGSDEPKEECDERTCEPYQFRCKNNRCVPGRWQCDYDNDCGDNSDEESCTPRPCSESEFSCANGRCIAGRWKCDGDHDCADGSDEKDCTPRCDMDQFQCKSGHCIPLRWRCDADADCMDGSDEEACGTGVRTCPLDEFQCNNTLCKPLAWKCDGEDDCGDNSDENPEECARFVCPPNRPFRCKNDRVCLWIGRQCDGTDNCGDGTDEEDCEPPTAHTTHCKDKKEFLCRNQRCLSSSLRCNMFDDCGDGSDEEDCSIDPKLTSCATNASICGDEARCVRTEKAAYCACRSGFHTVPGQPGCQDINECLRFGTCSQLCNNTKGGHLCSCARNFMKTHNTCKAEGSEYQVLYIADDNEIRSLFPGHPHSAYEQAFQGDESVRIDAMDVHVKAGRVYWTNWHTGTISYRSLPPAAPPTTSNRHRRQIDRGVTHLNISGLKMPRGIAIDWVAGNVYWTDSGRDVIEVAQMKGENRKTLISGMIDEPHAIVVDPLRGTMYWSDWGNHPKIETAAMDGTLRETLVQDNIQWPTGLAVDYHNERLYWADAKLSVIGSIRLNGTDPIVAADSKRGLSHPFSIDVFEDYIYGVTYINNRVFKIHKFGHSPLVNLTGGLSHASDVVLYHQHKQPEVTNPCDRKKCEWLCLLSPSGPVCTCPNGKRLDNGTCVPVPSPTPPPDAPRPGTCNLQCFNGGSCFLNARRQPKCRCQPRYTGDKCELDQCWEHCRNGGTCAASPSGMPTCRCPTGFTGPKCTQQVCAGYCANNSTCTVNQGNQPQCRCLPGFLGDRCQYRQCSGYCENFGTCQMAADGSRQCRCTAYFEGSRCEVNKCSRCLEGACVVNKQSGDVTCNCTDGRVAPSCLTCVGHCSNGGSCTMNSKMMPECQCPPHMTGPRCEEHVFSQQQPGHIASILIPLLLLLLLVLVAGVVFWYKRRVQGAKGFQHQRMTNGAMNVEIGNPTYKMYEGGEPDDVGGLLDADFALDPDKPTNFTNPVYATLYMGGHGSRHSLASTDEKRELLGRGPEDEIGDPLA

Assays:
Experiment in all cases: SPR
[1] = target: Full-length human LRP1 purified from placenta (human) (UniProt Q07954)
[2] = target: Recombinant human LRP1 cluster IV Fc chimera (human)
[3] = target: Recombinant human LRP1 cluster II Fc chimera (human)

Substance | Kd [1] [nM] | Kd [2] [nM] | Kd [3] [nM]
recombinant human tau 2N4R (as used in SPR) (from UniProt P10636-8 1-441) (natural protein) | 60 | 81 | 69
hyperphosphorylated 2N4R tau produced in Sf9 cells (from UniProt P10636-8 1-441) (natural protein; hyperphosphorylated (sites not printed)) | 243 | – | –
